Values of other authors, collected in US9427426B2 (priority 2008, dated 2016).

Conditions: in man; cited from earlier work

For mercury, the half-life is given as 40 to 70 days.
